Experimental data: patent publication US10624891B2, “Method of diagnosing and treating skin necroptosis disease comprising RIP3-MLKL pathway blocker” (Ajou University Industry-Academic Cooperation Foundation, priority 2015, dated 2020)

Experiments:
HEKn cells = assay: Necroptosis inhibition: protection of HEKn cells from SNP cytotoxicity
[1] = system: HaCaT and HEKn cells expressing RIP3; assay: SNP treatment of HaCaT and HEKn cells, MTT assay and western blotting

zVAD
protection from acute SNP cytotoxicity / SNP-induced cell death (HEKn cells): inhibited partially | caspase-3 and PARP cleavage induced by TNF/CHX and SNP [1]: completely blocked | SNP-induced cell death ([1]; pan-caspase inhibitor zVAD): did not significantly affect
